Results: patent US6610675B1, “Inactive metabolite approach to soft drug design” (priority 1980, dated 2003)

Columns and labels:
Type in all cases: in vivo, rat
[1] = system: ear swelling induced by croton oil; assay: Ear edema test; conditions: 1 mg/kg topical, 48 hours
Method: The test animals were Sprague/Dawley rats weighing approximately 150 grams each. In treatment groups, selected amounts of the test compound were dissolved in acetone containing 5% croton oil and 50 microliters of the solution were applied to the inner surface of the right ear of the rats. A control group was identically treated with vehicle only, i.e. 5% croton oil in acetone. Six hours after croton oil challenge, a constant region of each ear was removed by dissection under anesthesia. Then, 48 hours after steroid treatment, the animals were sacrificed and the thymi and adrenals were removed and weighed. The test results showing the inhibitory effect of topically applied steroids on the ear swelling induced by croton oil are summarized in Table II below.

[2] = system: granulation tissue formation caused by implantation of cotton pellets; assay: Granuloma formation test (local cotton pellet granuloma assay); conditions: for Relative organ weight Adrenals / Relative organ weight Adrenals (Decrease %) / Relative organ weight Thymus / Relative organ weight Thymus (Decrease %): Table III
Method: The test compound was dissolved in acetone and aliquots of varying concentrations were injected into cotton pellets. The pellets were dried and then one pellet was implanted beneath the skin of each test rat. Six days later, the animals were sacrificed and the granulation tissue (granuloma) which formed in and around the implanted pellet was removed, dried and weighed. In addition, the thymi and adrenals were removed and weighed.

thymus weight in rats = assay: Thymus inhibition testing (subcutaneous administration)
Method: Several further studies were undertaken to determine the effects of selected compounds of the invention on thymi weights in rats when the drugs were systemically administered. In each of these studies, male Sprague-Dawley rats were used. […] On the fifth day (48 hours following the last treatment), the animals were sacrificed and the thymi weights were recorded. […] It is evident that the higher the inhibition of thymus activity at a given dose, the more toxic the compound is.

[3] = Table X, betamethasone 17-valerate = 1

For CCCC(=O)O[C@]1(C(=O)CO)CC[C@H]2[C@@H]3CCC4=CC(=O)CC[C@]4(C)[C@H]3[C@@H](O)C[C@@]21C [Hydrocortisone 17-butyrate, reference compound], the “Relative organ weight Adrenals” value [1] was 20.2 ± 0.7 mg/100 g body wt, the “Relative organ weight Thymus” value [1] was 303 ± 21 mg/100 g body wt and the “Relative organ weight Adrenals” value ([2]; 1 mg/pellet) was 27.1 ± 1.4 mg/100 g body wt. The “Relative organ weight Adrenals (Decrease %)” value ([2]; 1 mg/pellet) was “(−14.3) %”, the “Relative organ weight Thymus” value ([2]; 1 mg/pellet) was 73 ± 5 mg/100 g body wt and the “Relative organ weight Thymus (Decrease %)” value ([2]; 1 mg/pellet) was “(77.6) %”. For the same compound, the “Relative organ weight Adrenals” value ([2]; 3 mg/pellet) was 16.5 ± 1.2 mg/100 g body wt, the “Relative organ weight Adrenals (Decrease %)” value ([2]; 3 mg/pellet) was “(30.4) %” and the “Relative organ weight Thymus” value ([2]; 3 mg/pellet) was 47 ± 3 mg/100 g body wt. For the same compound, the “Relative organ weight Thymus (Decrease %)” value ([2]; 3 mg/pellet) was “(85.6) %”, the “Relative organ weight Adrenals” value ([2]; 10 mg/pellet) was 16.8 ± 1.2 mg/100 g body wt and the “Relative organ weight Adrenals (Decrease %)” value ([2]; 10 mg/pellet) was “(29.1) %”. The “Relative organ weight Thymus” value ([2]; 10 mg/pellet) was 32 ± 3 mg/100 g body wt, the “Relative organ weight Thymus (Decrease %)” value ([2]; 10 mg/pellet) was “(90.2) %” and the “Relative potency (ED60)” value ([2]; chloromethyl 11β-hydroxy-17α-isopropoxycarbonyloxyandrost-4-en-3-one-17β-carboxylate = 1) was 0.7. The “Relative Potency (TED40)” value (thymus weight in rats; [3]) was 0.23, the “Relative Potency (TED50)” value (thymus weight in rats; [3]) was 0.29 and the “Relative Potency (TED40)” value (thymus weight in rats; Table XII, hydrocortisone 17-butyrate = 1) was 1.
